{
  "source": "patent US8148388B2",
  "about": "“2,4 (4,6) pyrimidine derivatives” (Janssen Pharmaceutica, N.V., priority 2004, dated 2012)",
  "origin": "cited, not measured here",
  "test_system": "breast cancer",
  "settings": "patients; cited from earlier work",
  "data": [
    {"substance": "Trastuzumab [Herceptin]", "values": [
      {"measurement": "anti-tumour activity in clinical trials", "value": "anti-tumour activity against breast cancer"}
    ]}
  ]
}
